US20230220037A1, “NOVEL USE” (GlaxoSmithKline Intellectual Property (No.3) Limited, priority 0001, published 2023)

System: rats
Test: Five-day rat dural infusion migraine model, periorbital von Frey testing
Type: in vivo
Settings: supra-dural infusion 5 days; Pregnenolone sulphate 5 mM, CIM0216 215 μM
Description: The five-day rat Dural infusion migraine model is based on repeated inflammatory dural stimulation to mimic the repeated activation of dural afferents believed to occur in patients with recurrent migraine headache. In this model, rats are tested in the periorbital region for mechanical allodynia (a pain response to stimuli which are not normally painful) using von Frey fibres, which are small calibrated fibres which deliver a calibrated amount of force.
The surgery, infusion, and testing followed the modification of the method of Oshinsky & Gomoncharconsiri, 2007, supra. Briefly, rats were habituated and trained for 1-2 weeks and then fitted with a stainless-steel cannula (22GA, Plastics One) under isoflurane anaesthesia. […]
Periorbital thresholds were monitored during the recovery period to ensure the thresholds returned to pre-surgery baselines. […]
Pre-infusion sensory testing occurred on Day 1 of the testing schedule to provide a point of comparison for subsequent testing. […] Based on the response pattern and the force of the final filament, the periorbital threshold (g) was calculated (Chaplan et al., 1994, Quantitative assessment of tactile allodynia in the rat paw. Journal of neuroscience methods, 53(1), 55-63). The supra-dural infusions were above the dura in the right brain hemisphere; therefore, the right periorbital threshold data only was recorded. […]

## pregnenolone sulfate
  Overt adverse effects / body weight: do not cause overt adverse effects
